Consider four compounds from ChEMBL document CHEMBL4043104, “Conjugates of salicylaldoximes and peripheral site ligands: Novel efficient nonquaternary reactivators for nerve agent-inhibited acetylcholinesterase” (2017).

Amino acid sequences for entries named in this document (tags omitted). Residues count along the entry.
UniProt P22303, 32-614 limits assumed: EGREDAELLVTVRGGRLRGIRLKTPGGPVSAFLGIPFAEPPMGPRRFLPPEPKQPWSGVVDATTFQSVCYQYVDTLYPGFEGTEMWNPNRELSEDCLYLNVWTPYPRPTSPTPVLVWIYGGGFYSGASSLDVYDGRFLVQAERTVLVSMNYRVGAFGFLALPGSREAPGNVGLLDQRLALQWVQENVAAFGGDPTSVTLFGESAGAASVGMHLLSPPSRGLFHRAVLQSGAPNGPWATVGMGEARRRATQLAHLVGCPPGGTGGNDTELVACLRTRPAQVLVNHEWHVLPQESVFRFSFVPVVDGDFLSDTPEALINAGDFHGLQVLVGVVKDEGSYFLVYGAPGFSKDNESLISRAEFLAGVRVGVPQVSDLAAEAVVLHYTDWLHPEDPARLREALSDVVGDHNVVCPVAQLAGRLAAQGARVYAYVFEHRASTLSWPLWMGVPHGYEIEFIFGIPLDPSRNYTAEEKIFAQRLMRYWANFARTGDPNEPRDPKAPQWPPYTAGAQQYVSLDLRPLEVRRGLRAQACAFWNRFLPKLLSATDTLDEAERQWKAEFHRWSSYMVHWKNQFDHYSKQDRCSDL

For assay [1], the target named is Acetylcholinesterase (Homo sapiens) (UniProt P22303). Nature of the assay: Reactivation of sarin-induced inhibition of human AChE assessed as second order reactivation rate constant using acetylthiocholine as substrate preincubated for 30 mins followed by substrate addition measured at 5 to 180 mins by Ellman's method. A general note: DTNB colorimetry detects thiols as they appear.

Assay [2] has the same target. Nature of the assay: Reactivation of tabun-induced inhibition of human AChE assessed as second order reactivation rate constant using acetylthiocholine as substrate preincubated for 30 mins followed by substrate addition measured at 5 to 180 mins by Ellman's method.
The target is the same in assay [3]. The assay can be described thus: Reactivation of VX-induced inhibition of human AChE assessed as second order reactivation rate constant using acetylthiocholine as substrate preincubated for 30 mins followed by substrate addition measured at 5 to 180 mins by Ellman's method.
For assay [4] the target is unchanged. Nature of the assay: Reactivation of tabun-induced inhibition of human AChE assessed as reactivation rate constant using acetylthiocholine as substrate preincubated for 30 mins followed by substrate addition measured at 5 to 180 mins by Ellman's method.

For `COc1cc2c(cc1OC)CN(CC1CCN(Cc3cc(Br)cc(/C=N/O)c3O)CC1)CC2`, the Kr in assay [1] came out at 8.68 M⁻¹ s⁻¹; in assay [2], 6.87 M⁻¹ s⁻¹; in assay [3], 86.7 M⁻¹ s⁻¹; in assay [4], 2.9 ×10⁻³ /min.

As to `COc1cc2c(cc1OC)CN(CC1CCN(Cc3cc(F)cc(/C=N/O)c3O)CC1)CC2`, the Kr in assay [1] came to 2.55 M⁻¹ s⁻¹; in assay [2] it was 1.63 M⁻¹ s⁻¹; in assay [3], 103 M⁻¹ s⁻¹; in assay [4] it was 5.2 ×10⁻³ /min.

On to `COc1cc2c(cc1OC)CN(CC1CCN(Cc3cc(Cl)cc(/C=N/O)c3O)CC1)CC2`, for which the Kr in assay [1] was determined as 8.08 M⁻¹ s⁻¹; in assay [2], 6.37 M⁻¹ s⁻¹; in assay [3], 120 M⁻¹ s⁻¹; in assay [4], 3.4 ×10⁻³ /min.

Take `COc1cc(/C=N/O)c(O)c(CN2CCC(CN3CCc4cc(OC)c(OC)cc4C3)CC2)c1`: the Kr came out at 2.95 M⁻¹ s⁻¹ in assay [1], 1.62 M⁻¹ s⁻¹ in assay [2], 51.7 M⁻¹ s⁻¹ in assay [3] and 4.9 ×10⁻³ /min in assay [4].
